Here are results for 2 compounds from PubChem BioAssay AID488924 (Johns Hopkins Ion Channel Center, 2010).

Only a part is listed here, and it is no random draw. Activity calls are given as the source filed them.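 The calls were made as follows: active = membrane potential signal moves up or down beyond 5 SD from buffer-only wells, on both duplicate plates; inactive = the rest.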

The nature of the assay: parental HEK293 membrane potential modulation, confirmation, counter-screen for TRPC6 modulator project, cell-based (AID 488924). As to conditions: parental HEK293, membrane potential dye fluorescence; at 10 µM. In general terms: A counterscreen serves to expose hits that act by an unwanted route or on another target.
Turning to `CN1CCN(CCOC(=O)C(O)(c2ccccc2)c2ccccc2)CC1`, the membrane potential signal change entry was “inactive”.
Next, `O=C(OC1CN2CCC1CC2)C1c2ccccc2C=Cc2ccccc21` (configuration not stated): active: 95.5%.
